According to patent publication US9738628B2, “Substituted 1H-indazol-1-OL analogs as inhibitors of beta catenin/Tcf protein-protein interactions” (University of Utah Research Foundation, priority 2012, dated 2017):

System: HCT116 colon cancer cell line
Test: MTS-based cell proliferation inhibition assay
Design: species or system human
Settings: dose-dependent (FIG. 2)

## On1nnc2cc(CCc3noc(=S)[nH]3)ccc21 [Compound 7, 3-(2-(1-hydroxy-1H-benzo[d][1,2,3]triazol-5-yl)ethyl)-1,2,4-oxadiazole-5(4H)-thione]
  inhibition of growth of colon cancer cell HCT116: inhibit the proliferation
